Key:
[1] = test system: human PBMC MAIT cells; assay: MR1 tetramer staining of human PBMCs (flow cytometry); type: cell-based; details: PE-streptavidin tetramers; D5, CD161 co-staining
Protocol: Biotinylated MR1 (produced in either of the 2 methods mentioned above) is used to make tetramers by the addition of biotinylated MR1 to PE Streptavidin (#554061, BD Pharmingen) in a 4:1 molar ratio. PE Streptavidin is added sequentially in 1/10 aliquots to biotinylated MR1 at 10 minute intervals to ensure efficient tetramization.
Human MAIT cells are identified as being D5-positive (D5 mAb stains Vα7.2,-positive T cells; Vα7.2 is the invariant Vα-chain utilized by human MAIT cells) and CD161-positive. Human PBMCs were stained with CD3-PE-Cy7, CD8-PerCP, CD4-APC-Cy7, CD161-APC specific mAbs; as well as the anti-Vα7.2-FITC mAb D5 (generated in-house; human MAIT cells utilize the Vα7.2 alpha chain) and PE-labeled tetramers of mouse MR1-β2m-acetyl-6-Formyl Pterin (mouse MR1 had been refolded with either 6-formyl pterin or acetyl-6-formyl pterin). 10-20% of D5-positive, CD161-positive cells stained with tetramers of mouse MR1-β2m-acetyl-6-Formyl Pterin, depending on source of patient PBMCs.

[2] = test system: soluble MAIT TCR; assay: Complexation of MR1-ligand with soluble MAIT TCR; type: binding, human; details: separated from monomeric MAIT TCR and uncomplexed MR1
Text: For efficient production of MR1 tetramers with the potent stimulating ligand rRL-6-CH2OH, mutant MR1 containing a Lysine-43-Alanine mutation (Lys43Ala-MR1, and containing a C-terminal cysteine) is first refolded (in the absence of a ligand: “empty”, but otherwise using the standard refolding conditions described above, and then purified using the standard methods described previously. Refolded and purified empty Lys43Ala-MR1 can subsequently be loaded with rRL-6-CH2OH in the following manner: empty Lys43Ala-MR1 is incubated in the presence of 130× molar excess of rRL-6-CH2OH for 4 hours at room temperature in the dark. […] Additionally, novel re-arranged TRAV1-2-TRAJ12 and TRAV1-2-TRAJ20 alpha chains have been detected in tetramer-positive PBMCs. […]
Wild-type human MR1 containing a C-terminal cysteine can be refolded with the addition of 5-amino-6-D-ribitylamino-uracil and pyruvaldehyde, using the standard refolding conditions described above, and then purified using the standard methods also described above. MR1 refolded in this way has rRL-6-CH2OH bound as determined by X-ray crystallography structural studies, and by electrospray ionization time-of-flight (ESI TOF) mass spectrometry. […]

[3] = biological target: MAIT TCR (TRBV6-1); assay: Surface plasmon resonance (SPR) of MR1-ligand complexes with soluble wild-type MAIT TCR; type: binding, human; details: wild-type MAIT TCR utilizing TRBV6-1 (6-1); read-out: Kd (dissociation constant), SPR
Text: Wild-type human MR1 containing a C-terminal cysteine can be refolded with the addition of 5-amino-6-D-ribitylamino-uracil and pyruvaldehyde, using the standard refolding conditions described above, and then purified using the standard methods also described above. MR1 refolded in this way has rRL-6-CH2OH bound as determined by X-ray crystallography structural studies, and by electrospray ionization time-of-flight (ESI TOF) mass spectrometry. To produce tetramers, this MR1-rRL-6-CH2OH is reduced for 15 minutes by the addition of DTT to 5 mM final concentration, following which excess DTT is removed by passage over a PD-10 column (GE Healthcare) in PBS, and concentrated in a VIVASPIN 6 (Sartorius) centrifugal concentrator to 200 ul. MR1-rRL-6-CH2OH is then biotinylated with Maleimide-PEG2 biotin (Thermoscientific) at a 30:1 molar excess of biotin:protein at 4° C. in the dark overnight. Excess biotin is removed by passing biotinylated protein through an S200 10/300 GL (Healthcare) gel filtration column in Tris buffered saline (pH 8.0), prior to formation of tetramers by addition to PE Streptavidin (#554061, BD Pharmingen). […] In the same manner human MR1 containing a C-terminal cysteine can be refolded with the addition of 5-amino-6-D-ribitylamino-uracil, and subsequently purified by fast protein liquid chromatography (FPLC) to yield MR1 refolded with a novel ribityllumazine metabolite, reduced 7-hydroxy-ribityllumazine (rRL-7-OH). The identity of rRL-7-OH bound to MR1 was confirmed by ESI TOF mass spectrometry, and by determining its structure using X-ray crystallography. The identity of rRL-7-OH bound to MR1 was also confirmed by refolding wild-type MR1 with 5-amino-6-D-ribitylamino-uracil and ^13C-glycolaldehyde to yield MR1-^13C-rRL-7-OH. […] In addition, tetramers have been prepared from mouse wild-type MR1-rRL-6-CH2OH (containing a C-terminal cysteine), refolded and purified using 5-amino-6-D-ribitylamino-uracil and pyruvaldehyde.

[4] = biological target: mutant Y95F MAIT TCR (α-chain Y95F mutation; 6-1 Y95F); assay: Surface plasmon resonance (SPR) of MR1-ligand complexes with mutant Y95F MAIT TCR; type: binding, human; details: mutant Y95F MAIT TCR (6-1 Y95F)
[5] = test system: Jurkat-MAIT-TRBV6-1 cell line; assay: MR1 tetramer staining of Jurkat-MAIT-TRBV6-1 cell line; type: cell-based, human
Text: Wild-type human MR1 containing a C-terminal cysteine can be refolded with the addition of 5-amino-6-D-ribitylamino-uracil and pyruvaldehyde, using the standard refolding conditions described above, and then purified using the standard methods also described above. MR1 refolded in this way has rRL-6-CH2OH bound as determined by X-ray crystallography structural studies, and by electrospray ionization time-of-flight (ESI TOF) mass spectrometry. To produce tetramers, this MR1-rRL-6-CH2OH is reduced for 15 minutes by the addition of DTT to 5 mM final concentration, following which excess DTT is removed by passage over a PD-10 column (GE Healthcare) in PBS, and concentrated in a VIVASPIN 6 (Sartorius) centrifugal concentrator to 200 ul. MR1-rRL-6-CH2OH is then biotinylated with Maleimide-PEG2 biotin (Thermoscientific) at a 30:1 molar excess of biotin:protein at 4° C. in the dark overnight. Excess biotin is removed by passing biotinylated protein through an S200 10/300 GL (Healthcare) gel filtration column in Tris buffered saline (pH 8.0), prior to formation of tetramers by addition to PE Streptavidin (#554061, BD Pharmingen). […]

Row | Substance | Tetramer staining of human PBMC MAIT cells [1] | Kd [3] [µM] | further results
1 | rRL-6-CH2OH-loaded Lys43Ala-MR1 tetramers: PE-streptavidin tetramers of human Lys43Ala-MR1 loaded with rRL-6-CH2OH | identify a CD161-positive, D5-positive | – | –
2 | Lys43Ala-MR1 loaded with rRL-6-CH2OH: human Lys43Ala mutant MR1 refolded empty, then loaded with rRL-6-CH2OH | – | – | Complexation with soluble MAIT TCR [2]: capable of complexation
3 | MR1-6-FP: MR1 refolded with 6-FP; negative control in SPR | – | > 300 | Kd (dissociation constant), SPR [4]: N.B
4 | MR1-rRL-7-OH: wild-type human MR1 refolded with rRL-7-OH | – | 5.64 ± 0.4 | Kd ([4]; read-out: Kd (dissociation constant), SPR): 48.2 ± 3.6 µM
5 | human MR1-rRL-6-CH2OH tetramers: PE-streptavidin tetramers of human wild-type MR1-rRL-6-CH2OH | – | – | Tetramer staining of Jurkat-MAIT-TRBV6-1 cell line [5]: comparable staining
6 | MR1-rRL-6-CH2OH: wild-type human MR1 (C-terminal cysteine) refolded with 5-amino-6-D-ribitylamino-uracil and pyruvaldehyde, rRL-6-CH2OH bound | – | 1.65 | Complexation with soluble MAIT TCR [2]: capable of complexation
7 | human Leucine151Alanine MR1 refolded with 6-FP: tetramers from human Leucine151Alanine MR1 (BirA peptide-tagged) refolded with 6-FP | stain a proportion | – | –
8 | MR-rRL-7-OH tetramers: PE-streptavidin tetramers of human MR1-rRL-7-OH | identify the same CD161-positive population | – | Tetramer staining of Jurkat-MAIT-TRBV6-1 cell line [5]: comparable staining

— patent US10011602B2, “Immunological reagents and uses therefor” (THE UNIVERSITY OF MELBOURNE, priority 2012, dated 2018)
